Laboratory results reported in ChEMBL document CHEMBL4393717, “Development of novel human lactate dehydrogenase A inhibitors: High-throughput screening, synthesis, and biological evaluations” (Eur J Med Chem, 2019).

Tests used:
[1] = biological target: T1, L-lactate dehydrogenase A chain (Homo sapiens, UniProt P00338); experiment: Inhibition of human LDHA expressed in Escherichia coli BL21 (DE3) using sodium pyruvate as substrate by Lineweaver-Burk plot method
[2] = biological target: T1, L-lactate dehydrogenase A chain; experiment: Inhibition of recombinant human full-length N-terminal His-tagged LDHA (1 to 332 residues) expressed in Escherichia coli using sodium pyruvate as substrate incubated for 10 mins

Ki [1]: > 100 µM
EC50 [2]: 1200 µM
Structure (SMILES): NC(=O)C(=O)O [SODIUM OXAMATE]
